System: HEK293
Assay: cells
Conditions: Homo sapiens

## CC(C)c1nc(-c2ccc(NC(=O)Nc3cccc(C(F)(F)F)c3)c3ccccc23)c2c(N)nccn12
  EC50: > 49 µM
